Chains of the proteins cited; added tags and fusions are not shown.
UniProt P41143, whole entry: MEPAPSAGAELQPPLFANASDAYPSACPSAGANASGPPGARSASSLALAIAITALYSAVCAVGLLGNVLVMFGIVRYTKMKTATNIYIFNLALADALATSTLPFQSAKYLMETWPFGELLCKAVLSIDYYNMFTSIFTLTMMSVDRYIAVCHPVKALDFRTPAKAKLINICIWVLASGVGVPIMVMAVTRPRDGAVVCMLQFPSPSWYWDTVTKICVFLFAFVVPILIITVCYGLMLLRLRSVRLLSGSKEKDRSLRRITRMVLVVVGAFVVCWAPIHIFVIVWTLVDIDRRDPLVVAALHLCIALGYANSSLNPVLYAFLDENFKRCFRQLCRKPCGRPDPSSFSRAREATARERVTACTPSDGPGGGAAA
UniProt P35372, whole entry: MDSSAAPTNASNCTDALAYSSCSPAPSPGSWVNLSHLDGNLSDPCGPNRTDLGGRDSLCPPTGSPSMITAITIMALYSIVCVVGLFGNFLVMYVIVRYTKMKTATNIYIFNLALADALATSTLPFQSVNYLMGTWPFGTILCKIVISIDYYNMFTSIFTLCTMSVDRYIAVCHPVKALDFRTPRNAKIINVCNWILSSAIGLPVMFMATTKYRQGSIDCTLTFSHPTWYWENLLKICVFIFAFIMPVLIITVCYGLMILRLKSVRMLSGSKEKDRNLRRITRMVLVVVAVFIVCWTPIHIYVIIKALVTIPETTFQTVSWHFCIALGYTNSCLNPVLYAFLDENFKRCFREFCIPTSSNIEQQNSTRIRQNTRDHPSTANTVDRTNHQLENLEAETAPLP
UniProt P41145, whole entry: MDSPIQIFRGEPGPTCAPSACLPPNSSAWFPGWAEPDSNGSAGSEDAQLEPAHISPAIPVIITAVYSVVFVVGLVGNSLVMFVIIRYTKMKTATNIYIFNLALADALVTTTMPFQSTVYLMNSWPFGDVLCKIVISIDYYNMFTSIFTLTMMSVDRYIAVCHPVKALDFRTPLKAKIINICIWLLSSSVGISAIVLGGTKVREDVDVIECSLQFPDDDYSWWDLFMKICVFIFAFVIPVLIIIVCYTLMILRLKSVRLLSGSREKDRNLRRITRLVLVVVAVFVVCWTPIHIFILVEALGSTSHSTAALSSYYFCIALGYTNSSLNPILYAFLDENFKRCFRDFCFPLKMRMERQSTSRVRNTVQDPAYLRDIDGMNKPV
UniProt P41146, whole entry: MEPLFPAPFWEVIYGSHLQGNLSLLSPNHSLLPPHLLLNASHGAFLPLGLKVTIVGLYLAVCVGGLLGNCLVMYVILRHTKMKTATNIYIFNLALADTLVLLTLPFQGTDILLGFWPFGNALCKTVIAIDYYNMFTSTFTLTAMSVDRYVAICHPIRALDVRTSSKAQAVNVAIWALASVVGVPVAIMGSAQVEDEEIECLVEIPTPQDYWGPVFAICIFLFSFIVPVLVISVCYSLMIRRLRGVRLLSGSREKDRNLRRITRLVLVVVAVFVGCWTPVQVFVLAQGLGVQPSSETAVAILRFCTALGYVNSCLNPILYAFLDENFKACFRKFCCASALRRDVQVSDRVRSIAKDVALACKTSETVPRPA

According to ChEMBL document CHEMBL1131838, “8-acenaphthen-1-yl-1-phenyl-1,3,8-triaza-spiro[4.5]decan-4-one derivatives as orphanin FQ receptor agonists” (Bioorg Med Chem Lett, 1999):

How the values were obtained:
[1] = target: Delta-type opioid receptor (Homo sapiens, UniProt P41143); assay: Displacement of [3H]-naloxone from Opioid receptor delta 1
Mu-type opioid receptor = Mu-type opioid receptor (Homo sapiens, UniProt P35372); assay: Displacement of [3H]naloxone from human mu opioid receptor
[2] = target: Kappa-type opioid receptor (Homo sapiens, UniProt P41145); assay: Displacement of [3H]naloxone from human kappa opioid receptor
Nociceptin receptor = Nociceptin receptor (Homo sapiens, UniProt P41146); assay: Displacement of [3H]-orphanin FQ from human OrphaninFQ (hOFQ) receptor

Compound `O=C1NCN(c2ccccc2)C12CCN([C@@H]1Cc3cccc4cccc1c34)CC2` has a Log Ki [1] of -7, a Log Ki (Mu-type opioid receptor) of -8.4 and a Log Ki [2] of -7.7.
`O=C1NCN(c2ccccc2)C12CCN([C@H]1Cc3cccc4cccc1c34)CC2` gave a Log Ki [1] of under -6.3, a Log Ki (Mu-type opioid receptor) of -7.9 and a Log Ki [2] of -7.6.
Compound `Cc1ccc(N2CNC(=O)C23CCN(C2Cc4cccc5cccc2c45)CC3)cc1` (stereo not drawn) has a Log Ki (Nociceptin receptor) of -8.3, a Log Ki [1] of under -6.3 and a Log Ki (Mu-type opioid receptor) of -7.3. The Log Ki [2] was -6.7.
`O=C1NCN(c2ccccc2)C12CCN(C1Cc3cccc4cccc1c34)CC2` (stereo not drawn) showed a Log Ki [1] of -6.6, a Log Ki (Mu-type opioid receptor) of -8.2 and a Log Ki [2] of -7.6.
